# scFv variants of Ab-14 (heavy chain) against a SARS-CoV-2 spike peptide

From the AlphaSeq antibody data of Engelhart et al. 2022 (doi:10.1038/s41597-022-01779-4), copy in the FLAb collection.

Binding partner: SARS-CoV-2 spike HR2 peptide, sequence PDVDLGDISGINAS.

Each scFv is VH, the linker GGGGSGGGGSGGGGS, VL, as in the parent Ab-14, and differs from it in the CDRs of the heavy chain only.
VH: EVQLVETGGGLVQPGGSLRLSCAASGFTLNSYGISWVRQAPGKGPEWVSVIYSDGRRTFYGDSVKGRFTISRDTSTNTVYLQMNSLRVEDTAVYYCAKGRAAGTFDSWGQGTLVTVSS
VL: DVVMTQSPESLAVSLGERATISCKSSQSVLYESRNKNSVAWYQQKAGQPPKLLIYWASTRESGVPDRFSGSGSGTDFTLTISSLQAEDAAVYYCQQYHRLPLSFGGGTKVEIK

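The library (AAYL49) carries one to three amino acid substitutions per variant, with no insertions or deletions. AlphaSeq pools MATa yeast showing the antibodies with MATalpha yeast showing the peptide. The frequency of each diploid, read from paired DNA barcodes, reflects how well the two displayed proteins bind. A regression on co-assayed BCL2-family reference pairs converts the normalised counts of each replicate to an apparent Kd. Each pool was mated in three replicate cultures.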

Positions count from residue 1 of the parent VH; Y52I puts I in place of Y. Numbers give log10(Kd / nM), so 0 is 1 nM and 3 is 1 µM. Smaller is tighter. A pair that was not seen in that replicate is written "nd"; this usually means weak binding, but a binder can also be missed. Three control strains display no target. For library AAYL49, 15% of the pairings with them gave a signal, with a median of 4.06 and one signal in twenty below 2.83, so weak values seen in few replicates may be background. Parent in this assay: reference entry 0.65, copy in this library 4.11 (one replicate of three).

nd, nd, nd for Y52I+D54A+G61M.
nd, nd, nd for F27K+T28R+R56Y.
nd, 4.07, 6.05 for S35Y+I51F+G99H.
nd, nd, nd for L29P+N30E+D62F.
nd, nd, nd for N30T+G33L+A101Y.
3.23, 2.90, 3.81 for K65Q+A101P+D106G.
nd, 4.99, 5.00 for G26P+S35K+D62L.
nd, 4.30, nd for G26L+T28A+I34Q.
nd, nd, 3.61 for N30E+S63Q+A102L.
nd, nd, nd for N30M+G99S.
3.31, 3.16, 2.51 for K65D+R100V+A102E.
nd, 2.08, nd for V50G+R57E+A102N.
nd, nd, nd for G55Y+F59M+A102F.
1.43, 1.46, 2.53 for L29I+R100C+D106K.
nd, nd, nd for N30V+I34K+A102C.
4.46, nd, nd for F27N+T28N+K65V.
nd, nd, nd for D62F+G99I+G103R.
nd, nd, nd for G26T+V50S.
nd, nd, 4.87 for R56Q+R100T+G103N.
nd, nd, nd for I34E+V50K+T104Y.
4.76, 3.89, 4.75 for L29V+S35H+S63H.
0.97, 1.14, 1.29 for R56T+G103P+S107P.
nd, nd, 3.62 for Y32C+I34W+R57H.
0.21, 0.52, 0.30 for G26L+I34R+A101E.
nd, 3.14, nd for T28P+T58D+K65M.
3.10, 2.16, 3.59 for D62E+K65W+G99C.
nd, nd, nd for Y32H+S53Q+A102Y.
nd, nd, nd for A101N+G103W+F105M.
nd, nd, nd for F27K+S63G+G103R.
3.18, nd, nd for T28P+G33P+K65V.
nd, 2.56, 3.04 for D54S+T58H+G103P.
nd, 4.69, 5.69 for Y32G+R57F+T58W.
4.78, 4.66, nd for I34M+G99P+T104P.
nd, nd, nd for Y60T+S107H.
nd, nd, nd for F27I+F59C+D106K.
nd, nd, nd for T28D+Y32Q+G55L.
nd, nd, nd for T28Q+T58D+F59R.
4.67, nd, nd for G55E+F59I+V64K.
nd, nd, nd for F27Q+V50A+T104Y.
nd, nd, nd for I51F+T58M+T104C.
nd, nd, nd for S31P+T58Y.
nd, nd, nd for R57N+S63Y+A102R.
0.76, 0.91, 0.77 for T28D+D62T+G103A.
5.08, 3.72, 3.53 for V50Y+D54W+G99S.
nd, nd, nd for R57Q+S63I+D106S.
nd, 3.13, 3.23 for S35H+G61Q+A101L.
1.76, 1.77, 1.98 for G61K+G99P+F105D.
nd, nd, nd for L29V+N30H+F59L.
nd, nd, nd for G33R+Y52S.
nd, 3.59, 4.86 for T28Y+G33H+D106W.
nd, 4.41, nd for S53N+Y60N+S63T.

The 7 strongest on average among those seen in every replicate, once more:

With G26L+I34R+A101E the result was 0.21, 0.52, 0.30.
With T28D+D62T+G103A the result was 0.76, 0.91, 0.77.
With R56T+G103P+S107P the result was 0.97, 1.14, 1.29.
With L29I+R100C+D106K the result was 1.43, 1.46, 2.53.
With G61K+G99P+F105D the result was 1.76, 1.77, 1.98.
With D62E+K65W+G99C the result was 3.10, 2.16, 3.59.
With K65D+R100V+A102E the result was 3.31, 3.16, 2.51.